# Results as given in patent publication US9326978B2, “A3 adenosine receptor allosteric modulators” (The United States of America, Represented by the Secretary, …, priority 2006, dated 2016).
# Sequences of proteins named here, by UniProt entry; tags and fusion partners are left off.
# UniProt P30542, whole entry: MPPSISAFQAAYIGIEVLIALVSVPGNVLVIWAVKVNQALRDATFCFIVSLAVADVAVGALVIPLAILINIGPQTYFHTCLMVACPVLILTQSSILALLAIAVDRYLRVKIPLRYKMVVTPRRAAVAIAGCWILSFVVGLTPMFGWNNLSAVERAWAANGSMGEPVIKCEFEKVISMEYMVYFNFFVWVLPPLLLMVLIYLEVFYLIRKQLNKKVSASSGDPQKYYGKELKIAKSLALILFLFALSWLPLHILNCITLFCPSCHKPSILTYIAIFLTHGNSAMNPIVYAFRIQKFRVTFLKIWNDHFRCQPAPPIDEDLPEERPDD
# UniProt P0DMS8, whole entry: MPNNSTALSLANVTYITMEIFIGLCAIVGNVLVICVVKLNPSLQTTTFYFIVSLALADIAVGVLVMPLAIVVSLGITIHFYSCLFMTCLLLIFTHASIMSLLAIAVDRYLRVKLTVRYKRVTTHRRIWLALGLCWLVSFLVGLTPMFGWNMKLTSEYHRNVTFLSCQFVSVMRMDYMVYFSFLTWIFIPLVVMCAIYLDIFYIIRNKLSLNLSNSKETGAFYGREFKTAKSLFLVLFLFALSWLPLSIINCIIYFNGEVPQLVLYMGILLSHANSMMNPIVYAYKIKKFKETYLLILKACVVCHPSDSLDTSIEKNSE
# Experiments:
# human A1AR = human A1AR (Homo sapiens (Human), UniProt P30542); experiment: Binding assay to the human A1AR ([3H]R-PIA); details: [3H]R-PIA (2.0 nM), CHO cells; Table 2; read-out: Ki(hA1AR)
# Method: CHO (Chinese hamster ovary) cells expressing the recombinant human ARs (HEK-293 cells were used for the human A2AAR) were cultured in DMEM and F12 (1:1) supplemented with 10% fetal bovine serum, 100 units/ml penicillin, […] streptomycin and 2 μmol/ml glutamine. Cells were harvested by trypsinization. After homogenization and suspension, cells were centrifuged at 500 g for 10 min, and the pellet was re-suspended in 50 mM Tris.HCl buffer (pH 7.4) containing 10 mM MgCl2. The suspension was homogenized with an electric homogenizer for 10 sec, and was then re-centrifuged at 20,000 g for 20 min at 4° C. The resultant pellets were resuspended in buffer in the presence of 3 Units/mL adenosine deaminase, and the suspension was stored at −80° C. until the binding experiments. The protein concentration was measured using the Bradford assay.
# For binding to the human A1AR, [^3H]R-PIA (2 nM) was incubated with membranes (40 μg/tube) from CHO cells stably expressing the human A1AR at 25° C. for 60 min in 50 mM Tris.HCl buffer (pH 7.4; MgCl2, 10 mM) in a total assay volume of 200 μL. Nonspecific binding was determined using 10 μM of N^6-cyclopentyladenosine. For human A2A AR binding, membranes (20 μg/tube) from HEK-293 cells stably expressing the human A2A AR were incubated with 15 nM [^3H]CGS21680 at 25° C. for 60 min in 200 μL of 50 mM Tris.HCl, pH 7.4, containing 10 mM MgCl2. […]
# human A3ARs = human A3ARs (Homo sapiens (Human), UniProt P0DMS8); experiment: Dissociation kinetics of [125I]I-AB-MECA from human A3ARs; details: 0.5 h, % decrease of dissociation at 30 min, residual binding of [125I]AB-MECA after 30 min = 100%, Table 2, read-out: hA3AR Ag. Dissociation at 10 μM
# Method: The dissociation of [^125I]I-AB-MECA was measured as follows. Membranes (20 μg) were preincubated at 25° C. with 0.5 nM [^125I]I-AB-MECA, in a total volume of 100 μl of Tris-HCl buffer (50 mM, pH 8.0) containing 10 mM MgCl2, and 1 mM EDTA for 60 min. The dissociation was then initiated by the addition of 3 μM Cl-IB-MECA with or without allosteric modulators. The time course of dissociation of total binding was measured by rapid filtration at appropriate time intervals. Nonspecific binding was measured after 60-min incubation in the presence of 3 μM Cl-IB-MECA. Further assay was as described above.
SMILES,Ki (human A1AR) [µM],activity at 10 µM (human A3ARs) [%]
"Cc1ccc(Nc2nc3ccccc3c3[nH]c(C4CCCC4)nc23)cc1 [Compound 31, N-(4-Methyl-phenyl)-2-cyclopentyl-1H-imidazo[4,5-c]quinolin-4-amine]",3.85 ± 0.5,
"Clc1ccc(Nc2nc3ccccc3c3[nH]c(C4CCC4)nc23)cc1Cl [Compound 44, N-(3,4-Dichloro-phenyl)-2-cyclobutyl-1H-imidazo[4,5-c]quinolin-4-amine]",,116 ± 3
